Results from publication PMC4849473, “The Chp1 chromodomain binds the H3K9me tail and the nucleosome core to assemble heterochromatin” (Cell Discovery, 2016).

Experiments:
Details in all cases: both partners purified
[1] = biological target: T1, Chp1CD wild type, SUMO tag removed, fluorescently labelled (for MST) (fission yeast (S. pombe), UniProt Q10103 15-75, fluorescent label, amine reactive (Monolith Protein Labeling Kit BLUE-NHS), 1:1 fluorescence:protein ratio); experiment: MST; 300 ng fluorescent Chp1CD (SUMO removed) in 20 μl, H3K9me3 peptide titrated; 10 mM Tris-HCl pH 7.5, 150 mM NaCl, 0.5 mM DTT, 0.05% Tween-20; five-parameter logistic fit
T1 construct: Chp1 chromodomain (Chp1CD), fission yeast; also called wild-type Chp1CD; fluorescent Chp1CD; source: E. coli BL21 (DE3)(pLys), purified (Ni-NTA); SUMO tag removed with Ulp1 protease; not shown: His6, N-terminal, cleaved; SUMO, N-terminal, cleaved
T1 sequence: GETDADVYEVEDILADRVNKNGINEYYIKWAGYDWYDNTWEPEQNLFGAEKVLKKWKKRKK

[2] = biological target: T2, Chp1CD LOOP1B/2B, SUMO tag removed, fluorescently labelled (for MST) (fission yeast (S. pombe), UniProt Q10103 15-75, N33A | N35A | W49A | Y50A | D51A, fluorescent label, amine reactive (Monolith Protein Labeling Kit BLUE-NHS), 1:1 fluorescence:protein ratio); experiment: as above
T2 construct: Chp1 chromodomain (Chp1CD), fission yeast; carries the mutations of LOOP1B and of LOOP2B; also called LOOP1B/2B Chp1CD mutant; source: E. coli BL21 (DE3)(pLys), purified (Ni-NTA); SUMO tag removed with Ulp1 protease; not shown: His6, N-terminal, cleaved; SUMO, N-terminal, cleaved
T2 sequence: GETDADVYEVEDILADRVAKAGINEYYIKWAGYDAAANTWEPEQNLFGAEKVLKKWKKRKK

[3] = biological target: T3, His6-SUMO-Chp1CD (chromodomain of Chp1, wild type) (fission yeast (S. pombe), UniProt Q10103 15-75); experiment: pull-down; biotinylated H3K9me3 peptide (1 μg) on streptavidin agarose resin, about 5 μg Chp1CD in 20 μl, 1 h on ice; 20 mM HEPES pH 7.5, 75 mM KCl, 0.5 mM DTT; SDS-PAGE, quantified with ImageJ, normalized to wt
T3 construct: Chp1 chromodomain (Chp1CD), fission yeast; several residues at the C-terminus of the α-helix that are missing in the crystal structure are present in this protein; Thrombin cleavage site between the His6 and SUMO tags; also called wild-type Chp1CD; Chp1 chromodomain; source: E. coli BL21 (DE3)(pLys), purified (Ni-NTA, gel filtration Superdex 75); not shown: His6, N-terminal, kept; SUMO, …
T3 sequence: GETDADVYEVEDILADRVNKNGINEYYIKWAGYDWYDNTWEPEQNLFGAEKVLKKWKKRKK

[4] = biological target: T4, His6-SUMO-Chp1CD LOOP1B (N33A, N35A) (fission yeast (S. pombe), UniProt Q10103 15-75, N33A | N35A); experiment: as above
T4 construct: Chp1 chromodomain (Chp1CD), fission yeast; source: E. coli BL21 (DE3)(pLys), purified (Ni-NTA)
T4 sequence: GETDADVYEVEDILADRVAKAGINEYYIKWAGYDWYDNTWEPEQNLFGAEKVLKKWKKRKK

[5] = biological target: T5, His6-SUMO-Chp1CD LOOP2A (N52A) (fission yeast (S. pombe), UniProt Q10103 15-75, N52A); experiment: as above
T5 construct: Chp1 chromodomain (Chp1CD), fission yeast; source: E. coli BL21 (DE3)(pLys), purified (Ni-NTA)
T5 sequence: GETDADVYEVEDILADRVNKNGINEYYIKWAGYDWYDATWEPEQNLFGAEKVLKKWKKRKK

[6] = biological target: T6, His6-SUMO-Chp1CD LOOP2B (W49A, Y50A, D51A) (fission yeast (S. pombe), UniProt Q10103 15-75, W49A | Y50A | D51A); experiment: as above
T6 construct: Chp1 chromodomain (Chp1CD), fission yeast; source: E. coli BL21 (DE3)(pLys), purified (Ni-NTA)
T6 sequence: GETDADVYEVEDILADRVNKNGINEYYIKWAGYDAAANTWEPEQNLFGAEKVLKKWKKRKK

[7] = biological target: T7, His6-SUMO-Chp1CD LOOP1A (R31S, N33A, N35A) (fission yeast (S. pombe), UniProt Q10103 15-75, R31S | N33A | N35A); experiment: as above
T7 construct: Chp1 chromodomain (Chp1CD), fission yeast; also called LOOP1A construct; source: E. coli BL21 (DE3)(pLys), purified (Ni-NTA)
T7 sequence: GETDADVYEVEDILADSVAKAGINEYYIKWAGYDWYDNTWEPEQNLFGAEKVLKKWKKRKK

Measured: binding result

B1: [Lys(Me3)9]-Histone H3 ([…])-GGK(Biotin) peptide (peptide)
peptide: not shown
modifications: trimethyl-lysine at 9; biotin on the C-terminal lysine of GGK
notes: C-terminal linker with the biotinylated lysine; also called H3K9me3 peptide; H3K9me peptide; source: bought: Eurogentec (synthetic peptide)
binds: [1] | [2] | [3] | [4] | [5] | [6] | [7]
